Test results from patent US20260028326A1, “COMPOUND BASED ON ISOINDOLINE-SUBSTITUTED GLUTARIMIDE BACKBONE AND USE THEREOF” (GLUETACS THERAPEUTICS (SHANGHAI) CO., LTD., priority 2022, published 2026).

Assays:
[1] = test system: Ramos cells; assay: Tumor cell proliferation IC50 (CCK-8), Ramos; settings: Homo sapiens, 72 h, read-out: IC50 for inhibiting the proliferation of tumor cells, Ramos
[2] = test system: SU-DHL-4 cells; assay: Tumor cell proliferation IC50 (CCK-8), SU-DHL-4; settings: Homo sapiens, SU-DHL-4, 72 h, read-out: IC50 for inhibiting the proliferation of tumor cells, SU-DHL-4
[3] = test system: SW620 cells; assay: Tumor cell proliferation IC50 (CCK-8), SW620; settings: Homo sapiens, SW-620, 96 h, read-out: IC50 for inhibiting the proliferation of tumor cells, SW620
[4] = test system: MV-4-11 cells; assay: Tumor cell proliferation IC50 (CCK-8), MV-4-11; settings: Homo sapiens, MV4-11, 96 h, read-out: IC50 for inhibiting the proliferation of tumor cells, MV-4-11
[5] = test system: SU-DHL-6 cells; assay: Tumor cell proliferation IC50 (CCK-8), SU-DHL-6; settings: Homo sapiens, SU-DHL-6, 72 h, read-out: IC50 for inhibiting the proliferation of tumor cells, SU-DHL-6
[6] = test system: Daudi cells; assay: Tumor cell proliferation IC50 (CCK-8), Daudi; settings: Homo sapiens, read-out: IC50 for inhibiting the proliferation of tumor cells, Daudi;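 further: cell viability read with CCK-8 reagent after compound exposure of Daudi cells, IC50 derived from plotted growth inhibition curves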
[7] = test system: CCRF-CEM cells; assay: Tumor cell proliferation IC50 (CCK-8), CCRF-CEM; settings: Homo sapiens, 96 h, read-out: IC50 for inhibiting the proliferation of tumor cells, CCRF-CEM;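 further: cell viability measured with CCK-8 reagent after compound treatment, IC50 taken from plotted growth inhibition curves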
[8] = test system: Mino cells; assay: Tumor cell proliferation IC50 (CCK-8), Mino; settings: Homo sapiens, 72 h, read-out: IC50 for inhibiting the proliferation of tumor cells, Mino;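 further: cell viability assessed with CCK-8 reagent after compound exposure, IC50 derived from plotted growth inhibition curves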
[9] = test system: Kasumi-1 cells; assay: Tumor cell proliferation IC50 (CCK-8), Kasumi-1; settings: Homo sapiens, Kasumi 1, 72 h, read-out: IC50 for inhibiting the proliferation of tumor cells, Kasumi-1
[10] = test system: TMD8 cells; assay: Tumor cell proliferation IC50 (CCK-8), TMD8; settings: Homo sapiens, TMD8, 72 h, read-out: IC50 for inhibiting the proliferation of tumor cells, TMD8
[11] = test system: MDA-MB-231 cells; assay: Tumor cell proliferation IC50 (CCK-8), MDA-MB-231; settings: Homo sapiens, MDA-MB-231, 96 h, read-out: IC50 for inhibiting the proliferation of tumor cells, MDA-MB-231
[12] = test system: MM.1R cells; assay: Tumor cell proliferation IC50 (CCK-8), MM.1R; settings: Homo sapiens, 72 h, read-out: IC50 for inhibiting the proliferation of tumor cells, MM.1R
[13] = test system: MM.1S cells; assay: Tumor cell proliferation IC50 (CCK-8), MM.1S; settings: Homo sapiens, MM1.S, 72 h, read-out: IC50 for inhibiting the proliferation of tumor cells, MM.1S;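 further: viability of cultured cells read by CCK-8 reagent after compound exposure, growth inhibition curves fitted to derive IC50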

Measured: IC50

Nc1cccc2c1CN(C1CCC(=O)NC1=O)C2=O (stereo not shown) [lenalidomide, reference compound]
> 10 µM: all assays above
